Values quoted from earlier work in patent US20050004105A1, “Treatment for a attention-deficit hyperactivity disorder” (priority 2003, published 2005).

Protein sequences, listed by entry. Tags and fused reporters are not part of them. Residues count along the entry.
UniProt H0WCX4, 1-619: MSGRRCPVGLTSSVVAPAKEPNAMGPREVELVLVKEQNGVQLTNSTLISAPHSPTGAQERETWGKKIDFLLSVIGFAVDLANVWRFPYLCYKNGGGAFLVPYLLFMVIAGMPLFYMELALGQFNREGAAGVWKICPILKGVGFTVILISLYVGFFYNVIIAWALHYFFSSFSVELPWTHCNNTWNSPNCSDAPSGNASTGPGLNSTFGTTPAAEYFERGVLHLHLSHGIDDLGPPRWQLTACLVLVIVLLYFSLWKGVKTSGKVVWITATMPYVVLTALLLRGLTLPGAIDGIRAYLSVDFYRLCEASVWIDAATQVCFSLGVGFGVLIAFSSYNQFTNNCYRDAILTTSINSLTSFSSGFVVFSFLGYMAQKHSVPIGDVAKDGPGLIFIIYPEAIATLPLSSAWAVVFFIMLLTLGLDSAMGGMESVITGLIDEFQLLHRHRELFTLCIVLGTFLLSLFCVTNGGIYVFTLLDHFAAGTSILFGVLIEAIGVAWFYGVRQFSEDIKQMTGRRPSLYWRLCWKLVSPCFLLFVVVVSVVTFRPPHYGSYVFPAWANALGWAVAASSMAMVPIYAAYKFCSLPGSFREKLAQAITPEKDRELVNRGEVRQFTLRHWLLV

Target: dopamine transporter (DAT) (Cavia porcellus, UniProt H0WCX4)
Settings: guinea pig striatal membranes, [3H]WIN 35,428; exemplary protocol; read-out: Ki of reference compound, DAT binding assay; cited from earlier work

## Fc1ccc(C(OCCN2CCN(CCCc3ccccc3)CC2)c2ccc(F)cc2)cc1 [GBR-12909]
  Ki: ~7.1 nM
